Data reported in PMC8416565, “Inhibition of the MAP2K7-JNK pathway with 5Z-7-oxozeaenol induces apoptosis in T-cell acute lymphoblastic leukemia” (Oncotarget, 2021).

Target: T1, TAK1 (TAK1-TAB1) (Homo sapiens, UniProt O43318)
T1 construct: gene MAP3K7; constitutively active TAK1-TAB1 fusion (Promega V4088); with TAB1
T1 sequence (O43318 1-606): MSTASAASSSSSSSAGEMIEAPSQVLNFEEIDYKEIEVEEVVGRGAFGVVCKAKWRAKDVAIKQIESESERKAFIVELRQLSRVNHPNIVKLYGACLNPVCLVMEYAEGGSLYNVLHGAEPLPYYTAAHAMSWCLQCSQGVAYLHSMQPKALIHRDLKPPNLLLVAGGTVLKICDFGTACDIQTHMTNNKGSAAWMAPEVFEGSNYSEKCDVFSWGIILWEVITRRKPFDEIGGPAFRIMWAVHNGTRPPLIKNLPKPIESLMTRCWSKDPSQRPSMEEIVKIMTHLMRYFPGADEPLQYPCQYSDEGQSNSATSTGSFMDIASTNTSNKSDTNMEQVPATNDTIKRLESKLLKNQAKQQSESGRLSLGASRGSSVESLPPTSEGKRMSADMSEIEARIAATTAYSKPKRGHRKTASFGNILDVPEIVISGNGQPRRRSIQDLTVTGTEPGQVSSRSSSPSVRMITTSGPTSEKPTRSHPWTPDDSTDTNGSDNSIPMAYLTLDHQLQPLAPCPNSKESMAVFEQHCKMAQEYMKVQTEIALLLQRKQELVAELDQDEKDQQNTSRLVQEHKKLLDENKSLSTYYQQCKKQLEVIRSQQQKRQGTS
T1 sequence (Q15750 1-504 partner): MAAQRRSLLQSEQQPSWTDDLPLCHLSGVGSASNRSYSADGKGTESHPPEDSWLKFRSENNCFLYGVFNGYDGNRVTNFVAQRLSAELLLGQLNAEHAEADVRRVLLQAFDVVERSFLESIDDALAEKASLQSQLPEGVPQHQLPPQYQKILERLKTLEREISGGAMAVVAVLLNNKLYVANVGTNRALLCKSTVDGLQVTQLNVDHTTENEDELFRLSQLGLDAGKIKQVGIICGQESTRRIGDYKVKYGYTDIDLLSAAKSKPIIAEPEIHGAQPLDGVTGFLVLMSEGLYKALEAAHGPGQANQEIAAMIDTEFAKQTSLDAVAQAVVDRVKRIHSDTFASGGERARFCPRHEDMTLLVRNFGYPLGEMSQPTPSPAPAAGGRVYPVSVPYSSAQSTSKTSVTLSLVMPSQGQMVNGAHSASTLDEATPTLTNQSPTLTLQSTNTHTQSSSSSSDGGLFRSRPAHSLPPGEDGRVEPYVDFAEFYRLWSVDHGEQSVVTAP
Assay: ADP-Glo in vitro kinase assay, MBP substrate, 30-min preincubation
Format: biochemical

## COc1cc(O)c2c(c1)/C=C/C[C@H](O)[C@H](O)C(=O)/C=C\C[C@H](C)OC2=O [5Z7O, 5Z-7-oxozeaenol]
  IC50: 86 nM
